Measured values from patent US12286452B2, “Amphiphilic aminoglycoside connexin hemichannel inhibitors” (Texas Tech University System, priority 2018, dated 2025).
pIC50: −log10 of the molar value.

Chains of the proteins cited; added tags and fusions are not shown.
UniProt P17302, whole entry: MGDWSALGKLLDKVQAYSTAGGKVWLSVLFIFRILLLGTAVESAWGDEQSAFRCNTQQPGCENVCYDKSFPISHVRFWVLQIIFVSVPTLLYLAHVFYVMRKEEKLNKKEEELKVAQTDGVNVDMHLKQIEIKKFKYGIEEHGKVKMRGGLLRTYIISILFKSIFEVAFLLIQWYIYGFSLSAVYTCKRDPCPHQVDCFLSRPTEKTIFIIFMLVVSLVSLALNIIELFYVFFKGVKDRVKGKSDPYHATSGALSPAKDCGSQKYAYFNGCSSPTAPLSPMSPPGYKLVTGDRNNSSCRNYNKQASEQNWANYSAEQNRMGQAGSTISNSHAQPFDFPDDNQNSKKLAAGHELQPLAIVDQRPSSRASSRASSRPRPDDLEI

Experiments:
Cx43 HCs = Cx43 HCs (Homo sapiens, UniProt P17302); assay: Cx43-dependent growth complementation assay in E. coli LB2003; format: cell-based; conditions: IC50 Cx26/IC50 Cx43
human Cx26 HCs = human Cx26 HCs (Homo sapiens, UniProt P29033); assay: Cx26-dependent growth complementation assay in E. coli LB2003; format: cell-based; conditions: for Cx26 (% inhibition): Table 6, tested form: HCl

NCC1OC(OC2C(N)CC(N)C(OC3OC(COc4ccc(-c5nc6ccccc6[nH]5)cc4)C(O)C(N)C3O)C2O)C(O)C(O)C1O (centres unmarked)
Cx43/Cx26 Selectivity (Cx43 HCs; Table 7, tested form: HCl): 0.34 | Cx26 (% inhibition) (human Cx26 HCs; 15 μM): 83.1 ± 2.1% | Cx26 (% inhibition) (human Cx26 HCs; 50 μM): 85.5 ± 1.7%

NCC1OC(OC2C(N)CC(N)C(OC3OC(COCc4cccc(-c5ccccc5)c4)C(OCc4cccc(-c5ccccc5)c4)C(N)C3O)C2O)C(O)C(O)C1O (centres unmarked) [Compound 16, 4″,6″-Di-O-(3-phenylbenzyl)-kanamycin]
Cx43/Cx26 Selectivity (Cx43 HCs; Table 5): 1.23 | pIC50 (human Cx26 HCs; read-out: Cx26 IC50, 4″,6″-disubstituted AKs, Table 5): 5.18
